Consider one substance from patent US12377056B2, “Cladribine regimen for treating multiple sclerosis” (priority 2006, dated 2025).

Data set [1] deals with Vesicular Stomatitis virus. The class given is cell-based.
Data set [2] has as its system Relapsing-Remitting Multiple Sclerosis (RRMS). Conditions: given subcutaneously three times per week; cited from earlier work.

On to “Rebif®: purified 166 amino acid glycoprotein, recombinant human interferon beta-1a produced in Chinese Hamster Ovary cells”, for which, in data set [1] (44 mcg, same bioassay), the “antiviral activity contained in 44 mcg” value was “approximately 12 MIU”. Also, in data set [1] (reference standard calibrated against the WHO natural interferon beta standard, WISH cells, Vesicular Stomatitis virus), the “specific activity (antiviral activity)” value is listed as “approximately 270 million international units (MIU) of antiviral activity per mg of interferon beta-1a”. For the same substance, the “efficacy in RRMS” value in data set [2] is listed as “efficacious”.
